Assay [1] deals with Mu-type opioid receptor (Homo sapiens, UniProt P35372). Kind of assay: Receptor Binding Assay.
The target of assay [2] is Nociceptin receptor (Homo sapiens, UniProt P41146). The experiment in a line: Receptor Binding Assay.

The chains behind the UniProt entries cited, without tags or fusion partners. Where a name states a change or a piece, a line headed by the entry shows the natural chain unless it says otherwise.
UniProt P35372, whole entry, looked up: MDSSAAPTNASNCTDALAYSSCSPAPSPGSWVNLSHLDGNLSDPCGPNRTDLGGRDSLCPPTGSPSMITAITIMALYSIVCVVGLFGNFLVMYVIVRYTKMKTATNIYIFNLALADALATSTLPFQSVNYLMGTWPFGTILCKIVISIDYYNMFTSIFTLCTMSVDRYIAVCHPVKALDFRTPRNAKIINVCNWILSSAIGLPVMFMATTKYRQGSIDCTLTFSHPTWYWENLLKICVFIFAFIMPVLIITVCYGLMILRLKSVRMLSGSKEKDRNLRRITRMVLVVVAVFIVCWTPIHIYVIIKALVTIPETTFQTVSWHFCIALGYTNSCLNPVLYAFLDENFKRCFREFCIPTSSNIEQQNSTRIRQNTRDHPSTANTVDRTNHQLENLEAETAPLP
UniProt P41146: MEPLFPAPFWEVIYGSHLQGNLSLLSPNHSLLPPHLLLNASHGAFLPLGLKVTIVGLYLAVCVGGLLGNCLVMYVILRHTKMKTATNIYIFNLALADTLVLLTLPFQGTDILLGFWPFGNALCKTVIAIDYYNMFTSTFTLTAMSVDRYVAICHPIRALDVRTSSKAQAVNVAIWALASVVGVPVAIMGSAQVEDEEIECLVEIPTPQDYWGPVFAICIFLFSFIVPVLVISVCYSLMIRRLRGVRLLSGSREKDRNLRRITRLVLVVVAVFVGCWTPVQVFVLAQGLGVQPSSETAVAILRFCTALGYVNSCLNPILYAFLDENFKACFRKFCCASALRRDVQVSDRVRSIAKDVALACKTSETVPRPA

A word on the Ki: it is the equilibrium dissociation constant of an inhibitor or competing ligand from its target. The low end stands for higher affinity, the high end for lower affinity. Regarding `CN[C@]1(c2ccccc2)CC[C@]2(CC1)CN(Cc1cn(CC(N)=O)nn1)C(=O)N2CC1(O)CCC1`, the Ki in assay [1] was determined as 295 nM; in assay [2], 100 nM.

Consider `COc1ccc(CN2C[C@]3(CC[C@](c4ccccc4)(N(C)C)CC3)N(CC3COC3)C2=O)cc1`, for which the Ki in assay [1] was determined as 1040 nM; in assay [2], 36 nM.

As to `COc1ccc(CN2C[C@]3(CC[C@](c4ccccc4)(N(C)C)CC3)N(CCC(N)=O)C2=O)cc1`, the Ki in assay [2] amounted to 620 nM.

Consider `CN(C)[C@]1(c2ccccc2)CC[C@]2(CC1)CN(Cc1ccc(O)cc1)C(=O)N2CC1CCC1`, for which the Ki stood at 73 nM in assay [1] and 1.8 nM in assay [2].

As for `COc1ccc(C#N)cc1CN1C[C@]2(CC[C@](c3ccccc3)(N(C)C)CC2)N(Cc2cc(C#N)ccc2OC)C1=O`, the values for the Ki in assay [1] and in assay [2] were 1540 nM and 16.5 nM, respectively.

As to `COC(=O)CN1C(=O)N(Cc2ccc(OC)cc2)C[C@]12CC[C@](c1ccccc1)(N(C)C)CC2`, the Ki in assay [1] was 1040 nM; in assay [2], 21 nM.

`COc1ccc(CN2C[C@]3(CC[C@](c4ccccc4)(N(C)C)CC3)N(CC[S+](C)[O-])C2=O)cc1` (stereo partly specified): the Ki in assay [2] was determined as 630 nM.

With `COc1ccc(CN2C[C@]3(CC[C@](c4ccccc4)(N(C)C)CC3)N(CC3CCOC3)C2=O)cc1` (stereo partly specified), the Ki in assay [2] came out at 22.5 nM.

For `CN(C)[C@]1(c2ccccc2)CC[C@]2(CC1)CN(Cc1cccnc1)C(=O)N2CC1CCC1`, affinity in assay [1] was put at a Ki of 86.5 nM.

For `CN(C)[C@]1(c2ccccc2)CC[C@]2(CC1)CN(C(C)(C)c1ccccc1)C(=O)N2CC1(O)CCC1`, the Ki in assay [1] came out at 235 nM; in assay [2], 8.15 nM.
